A word on the IC50: it is the concentration that gives 50% inhibition. High values mean lower potency, low ones higher potency.

By UniProt entry, the sequences of proteins in these tests, tags left out.
UniProt Q96P20, whole entry: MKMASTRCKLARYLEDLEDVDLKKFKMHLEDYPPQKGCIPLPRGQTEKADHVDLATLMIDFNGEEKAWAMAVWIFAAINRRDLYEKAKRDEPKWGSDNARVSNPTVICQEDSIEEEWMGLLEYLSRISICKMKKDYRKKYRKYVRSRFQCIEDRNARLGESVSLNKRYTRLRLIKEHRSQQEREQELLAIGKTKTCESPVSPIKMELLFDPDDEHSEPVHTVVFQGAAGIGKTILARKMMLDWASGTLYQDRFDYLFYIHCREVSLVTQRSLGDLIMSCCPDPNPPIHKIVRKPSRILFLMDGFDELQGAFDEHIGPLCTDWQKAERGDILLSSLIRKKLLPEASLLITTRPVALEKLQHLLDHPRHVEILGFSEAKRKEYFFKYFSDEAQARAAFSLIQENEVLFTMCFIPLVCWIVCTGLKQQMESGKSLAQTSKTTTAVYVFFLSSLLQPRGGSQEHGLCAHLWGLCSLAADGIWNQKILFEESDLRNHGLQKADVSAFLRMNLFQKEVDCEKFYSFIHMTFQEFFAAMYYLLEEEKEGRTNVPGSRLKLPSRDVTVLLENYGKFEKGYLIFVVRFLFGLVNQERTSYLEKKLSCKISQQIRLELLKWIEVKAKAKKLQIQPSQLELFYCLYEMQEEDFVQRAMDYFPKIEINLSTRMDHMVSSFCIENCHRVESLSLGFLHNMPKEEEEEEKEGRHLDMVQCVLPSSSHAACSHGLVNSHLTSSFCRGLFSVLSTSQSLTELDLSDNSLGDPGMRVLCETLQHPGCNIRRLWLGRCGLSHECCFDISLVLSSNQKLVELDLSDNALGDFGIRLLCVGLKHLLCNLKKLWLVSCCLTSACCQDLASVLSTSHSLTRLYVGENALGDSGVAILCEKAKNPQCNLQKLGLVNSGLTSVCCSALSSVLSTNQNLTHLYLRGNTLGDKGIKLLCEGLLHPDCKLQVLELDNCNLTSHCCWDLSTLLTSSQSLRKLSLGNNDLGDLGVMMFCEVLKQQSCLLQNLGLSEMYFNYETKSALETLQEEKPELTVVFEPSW

The target in this experiment is NACHT, LRR and PYD domains-containing protein 3 (Homo sapiens, UniProt Q96P20). The experiment in a line: Evaluation of NLRP3 Inflammasome Inhibitory Activity Assay. The method, then:
The NLRP3 inflammasome inhibitory activity of test compounds were evaluated on the basis of the inhibitory activity of the IL-1β production in THP1-Null cells (Product Number: thp-null, InvivoGen). […] The supernatant of the culture was removed, and thereto was added media for assay (25 μL/well) containing 1 μg/mL Lipopolysaccharides (Product Number: L2654, Sigma-Aldrich (registered trademark)). […] The supernatant of the culture was removed. […] A solution containing a test compound (20 μL/well) was added to test compound-setting wells. […] The supernatant of the culture was cryonically stored (set at −20° C.) until measurement of IL-1β.

SMILES strings stand for the structures.

`Cc1cc(Br)cc(C)c1-n1cc2c(=O)[nH]c(N3CCOCC3)nc2n1` [US20240287079, Example 94] came in with an IC50 of 6.5 nM. This lies in the single-digit nanomolar range.

These data come from BindingDB's records for patent US20240287079 (Japan Tobacco, 2024).
